Experimental findings from published antibiotic growth screens (doi:10.1038/s41589-023-01349-8) are described below.

The list shows a part of the results.

The subject of the assay is A. baumannii ATCC 17978. Put plainly: relative growth (fraction of control); higher = less inhibition. The following applies: 50 µM.
Molecule `COC(=O)CN1C(=O)CSc2ncccc21` had a relative growth of 1.01.

For the molecule `Cc1ccc(C(=O)NCCN2CCNC2=O)cc1`, the relative growth is 1.02.

Regarding `O=C(C[C@H]1C=C[C@@H](NS(=O)(=O)c2ccccc2)[C@H](CO)O1)NCc1ccncn1`, the relative growth was 1.12.

`Cc1ccc(Nc2c(-c3ccccc3)nc3ccccn23)cc1` gave a relative growth of 0.898.

In turn, `CN(CC(N)=O)S(=O)(=O)c1ccc(F)cc1` displayed a relative growth of 1.01.

`CC(=O)O[C@@H]1[C@@H](O)C[C@@]2(C)[C@@H](CC[C@@H](C)[C@@]23Cc2c(O)cc4c(c2O3)CN([C@@H](CCC(=O)O)C(=O)O)C4=O)C1(C)C` had a relative growth of 1.15.

In turn, `CCC(=O)Nc1nc2[nH]c(COC)cc(=O)n2n1` came in with a relative growth of 0.937.

Consider `O=C(O)c1cc(S(=O)(=O)NCCN2CCNC2=O)ccc1O`, for which the relative growth stood at 0.985.

The molecule `N#CCC(=O)NN` yielded a relative growth of 0.917.

As to `COCC(=O)N1C[C@H](C)[C@@H](OC)CN(C)C(=O)c2ccc(NC(=O)Nc3cccc(F)c3)cc2OC[C@H]1C`, the relative growth amounted to 0.876.

Molecule `C=CC[C@@H](CC(=O)N(CCO)Cc1ccccc1)C(=O)N[C@H](COC(=O)[C@@H](CC=C)Cc1ccc(F)cc1)C(C)(C)C` came in with a relative growth of 0.757.

In turn, `C[C@@H]1O[C@H](Oc2cc(O)c3c(=O)c(O[C@H]4O[C@H](CO)[C@H](O)[C@H](O)[C@@H]4O[C@@H]4O[C@H](C)[C@@H](O)[C@H](O)[C@@H]4O)c(-c4ccc(O)c(O)c4)oc3c2)[C@@H](O)[C@H](O)[C@@H]1O` came in with a relative growth of 0.979.

In turn, `CC[C@H]1COCCC(=O)N1` returned a relative growth of 1.09.

`Cc1cc(O)cc(C)c1Cl` displayed a relative growth of 0.156.

The molecule `C[C@H]1CN([C@@H](C)CO)C(=O)c2cc(C#CCN(C)C)cnc2O[C@H]1CN(C)C(=O)c1ccc2c(c1)OCO2` yielded a relative growth of 1.2.

`COC[C@@H]1CN(C(=O)[C@H]2CCCN2C)N1` displayed a relative growth of 0.898.

With `CNC(=O)C[C@H]1CC[C@@H]2[C@H](COC[C@@H](O)CN2C(=O)Nc2ccc3c(c2)OCO3)O1`, the relative growth stood at 0.966.

As to `Cc1ccc(S(=O)(=O)N[C@H]2CC[C@@H](CCNC(=O)CN3CCOCC3)O[C@H]2CO)cc1`, the relative growth came to 0.977.

The molecule `Oc1cccc(O)c1` showed a relative growth of 1.04.

For `C[C@H]1CN([C@@H](C)CO)S(=O)(=O)c2ccc(C#CC3(O)CCCC3)cc2O[C@H]1CN(C)C(=O)c1cccnc1`, the relative growth worked out at 0.815.

As to `C[C@H](CO)N1C[C@H](C)[C@H](CN(C)C(=O)C2CCCCC2)Oc2cc(C#Cc3ccncc3)ccc2S1(=O)=O`, the relative growth came out at 0.893.

With `COC1=CC(=O)c2ccccc2C1=O`, the relative growth came to 0.421.

Take `C[C@H]1O[C@@H](OC[C@H]2O[C@@H](OC[C@]3(C)[C@H]4CC[C@@]5(C)[C@H](CC[C@H]6C7=CC(C)(C)CC[C@]7(C(=O)O)CC[C@@]65C)[C@@]4(C)CC[C@@H]3O)[C@@H](O)[C@@H](O)[C@@H]2O)[C@@H](O)[C@@H](O)[C@@H]1O`: the relative growth is 0.912.

Regarding `COCC#Cc1ccc2c(c1)O[C@H](CN(C)S(=O)(=O)c1cccc(F)c1)[C@H](C)CN([C@@H](C)CO)S2(=O)=O`, the relative growth came to 0.969.

In the case of `Cn1cnc(S(=O)(=O)N[C@@H]2CC[C@@H](CC(=O)N3CCN(c4ccccc4)CC3)O[C@H]2CO)c1`, the relative growth worked out at 1.06.

`CC1(C)S[C@@H]2[C@H](NC(=O)C3(N)CCCCC3)C(=O)N2[C@H]1C(=O)O` had a relative growth of 1.1.

For `Cn1c(=O)c2c(nc(N3CCOCC3)n2CCN)n(C)c1=O`, the relative growth amounted to 1.1.

For the molecule `CCSC1=C(C#N)C(=O)N[C@@H](CO)S1`, the relative growth came to 1.02.

The molecule `O=c1cc(-c2ccccc2O)oc2ccc(O)cc12` displayed a relative growth of 1.

As for `COCC#Cc1ccc2c(c1)O[C@@H](CN(C)C(=O)C1CCCCC1)[C@@H](C)CN([C@H](C)CO)S2(=O)=O`, the relative growth came out at 0.979.

In turn, `COCCNC(=O)C[C@H]1CC[C@@H]2[C@H](COC[C@@H](O)CN2C(=O)Nc2ccc3c(c2)OCO3)O1` displayed a relative growth of 1.05.

As to `COC(=O)c1c(C)cc(OC)cc1O`, the relative growth was 0.832.

`C=CCOC(=O)[C@@H]1[C@H]2C(=O)O[C@H](c3ccccc3)[C@H](c3ccccc3)N2[C@H](c2ccc(OCCOC(=O)[C@H]3C[C@H]4C(=O)NCC(=O)N4[C@H]3c3ccc(O)cc3)cc2)[C@@]12C(=O)Nc1ccc(I)cc12` yielded a relative growth of 1.37.

Consider `NC(=O)CC[C@H](N)C(=O)O`, for which the relative growth was found to be 1.1.

Take `O=C1c2ccccc2C(=O)C1c1ccc(Br)cc1`: the relative growth turned out to be 1.14.

The molecule `O=C(N[C@@H]1CC[C@H](CCNS(=O)(=O)c2ccc(F)cc2)O[C@H]1CO)C1CC1` returned a relative growth of 1.05.

For the molecule `Cc1ccc2nc(-c3ccco3)[nH]c2c1`, the relative growth was 0.926.

For the molecule `CCCCC/C=C\C/C=C\C/C=C\CCCCCCC(=O)O`, the relative growth came to 1.26.

`C=CCNC(=O)[C@H]1[C@@H]2C(=O)O[C@@H](c3ccccc3)[C@@H](c3ccccc3)N2[C@@H](c2ccccc2OCCO)[C@]12C(=O)Nc1ccc(C#CC3=CCCCC3)cc12` gave a relative growth of 1.22.

With `CCCCCCc1nc(-c2ccc(-c3ccc(Cl)c(Cl)c3)o2)cc2c1[Si](C(C)C)(C(C)C)O[C@H]2c1ccccc1`, the relative growth came out at 1.02.

`CCCNC(=O)[C@@H]1c2ccccc2C(=O)N(Cc2cc(F)cc(C(F)(F)F)c2)[C@H]1c1ccc(CO)cc1` came in with a relative growth of 0.962.

`O=C(C[C@H]1C=C[C@@H](NC(=O)c2cnccn2)[C@H](CO)O1)NCc1ccccc1F` showed a relative growth of 1.08.

The molecule `CN1CCN2c3ccccc3Cc3ccccc3C2C1.Cl` (stereo not given) returned a relative growth of 1.07.

`CCN(CC)CCNC(C(=O)OCCC(C)C)c1ccccc1.Cl.Cl` (stereo not given) registered a relative growth of 1.04.

On to `CCNC(=O)c1sc(C)nc1N`, for which the relative growth was 0.822.

Regarding `Clc1ccc(CSc2nc3ccccc3s2)cc1`, the relative growth is 1.12.

Turning to `CC(C)C#Cc1ccc2c(c1)O[C@@H](CN(C)C(=O)c1cccc(F)c1)[C@@H](C)CN([C@@H](C)CO)S2(=O)=O`, the relative growth came to 1.04.

`Cc1cc2c(s1)Nc1ccccc1N=C2N1CCN(C)CC1` gave a relative growth of 0.958.

Consider `CCN(CC)CCOC(=O)c1ccc(N)cc1.Cl`, for which the relative growth was determined as 1.05.

Consider `Cn1cnc(S(=O)(=O)N2C[C@@H](O)COC[C@H]3O[C@@H](CC(=O)NCc4cc(F)cc(F)c4)CC[C@@H]32)c1`, for which the relative growth was found to be 0.998.

Regarding `NNC(=O)CCCCC(=O)NO`, the relative growth came out at 1.

`NCc1ccc(S(=O)(=O)N2CCOCC2)cc1` displayed a relative growth of 1.03.

For `O=C(C[C@@H]1CC[C@H]2[C@@H](COC[C@H](O)CN2Cc2ccccc2F)O1)N[C@H]1CCN(Cc2ccccc2)C1`, the relative growth turned out to be 0.958.

With `O=C1COC2(CN1)COC2`, the relative growth stood at 1.05.

Take `CC(=O)N(C)CCc1ccc(C)[n+]([O-])c1`: the relative growth worked out at 1.05.

As to `CCC(=O)N(C)C[C@@H]1Oc2ncc(C#C[C@@H](C)O)cc2C(=O)N([C@@H](C)CO)C[C@H]1C`, the relative growth was determined as 1.01.

With `C=C[C@H]1CN2CC[C@H]1C[C@@H]2[C@H](O)c1ccnc2ccc(OC)cc12.Cl`, the relative growth was 1.03.

Consider `CC(C)(C)c1ccc(NC(=O)N[C@H]2CCCc3ccccc32)cc1`, for which the relative growth was 1.09.

Consider `CO[C@H](CN(C)C(=O)c1ccccc1F)[C@H](C)CN([C@@H](C)CO)S(=O)(=O)c1ccc(Cl)cc1`, for which the relative growth came out at 0.832.

Consider `COc1ccc(S(=O)(=O)N(C)C[C@@H]2Oc3ccc(NC(=O)Nc4cccc5c4CCCC5)cc3CC(=O)N([C@@H](C)CO)C[C@@H]2C)cc1Cl`, for which the relative growth turned out to be 0.894.

Molecule `CC(C)OC(=O)C(C)(C)Oc1ccc(C(=O)c2ccc(Cl)cc2)cc1` registered a relative growth of 0.999.

For `C[C@H](CO)N1C[C@H](C)[C@H](CN(C)S(=O)(=O)c2ccccc2)Oc2cc(Br)ccc2S1(=O)=O`, the relative growth was found to be 0.946.

The molecule `O=C(C[C@H]1C=C[C@H](NC(=O)C2CCOCC2)[C@H](CO)O1)NCCc1cscn1` had a relative growth of 1.01.

Molecule `CN1CCN(C(=O)C[C@H]2C[C@@H]3c4cc(NS(=O)(=O)c5ccc(F)cc5)ccc4O[C@@H]3[C@@H](CO)O2)CC1` returned a relative growth of 1.05.

Consider `CC(C)c1nc(/N=C/N(C)C)nc(=O)n1C`, for which the relative growth was determined as 1.02.

The molecule `Cc1ccc(C=Nn2nnnc2N)s1` returned a relative growth of 0.968.

Turning to `O=C(O)[C@H]1C2C(=O)N(C3CC3)C[C@]23C=C[C@H]1O3` (stereo not given in full), the relative growth amounted to 1.19.

In the case of `c1cc(-c2nnc(Cn3cncn3)[nH]2)ccn1`, the relative growth is 1.04.

`CCOc1ccc2nc(C34CC5CC(CC(C5)C3)C4)ccc2c1`: the relative growth came to 1.15.

Molecule `CC(C)(C)OC(=O)NC(=NCCn1cc(-c2cccc(/C=C/C(=O)NO)c2)nn1)NC(=O)OC(C)(C)C` came in with a relative growth of 1.11.

In turn, `CCOC(=O)[C@H](CCc1ccccc1)N[C@@H](C)C(=O)N1Cc2cc(OC)c(OC)cc2C[C@H]1C(=O)O.Cl` yielded a relative growth of 1.05.

Molecule `C=CCC[C@H](Cc1ccc(F)cc1)C(=O)OC[C@@H](NC(=O)[C@@H](CC=C)CC(=O)N(CCO)Cc1ccccc1)C(C)(C)C` returned a relative growth of 1.25.

Regarding `CN(C)CCC(c1ccc(Cl)cc1)c1ccccn1.O=C(O)/C=C\C(=O)O` (stereo not given), the relative growth was determined as 0.913.

The molecule `O=C(C[C@@H]1CC[C@H](NC(=O)Cc2ccccn2)[C@@H](CO)O1)NCCCN1CCOCC1` gave a relative growth of 0.969.

Take `O=C(COc1ccccc1)Nc1nn[nH]n1`: the relative growth came to 0.921.

For `CCOc1ccc2nc(S(N)(=O)=O)sc2c1`, the relative growth is 1.05.

For `C[C@@H]1CN([C@H](C)CO)C(=O)c2cc(C#Cc3ccccc3F)cnc2O[C@@H]1CN(C)S(=O)(=O)c1ccccc1`, the relative growth stood at 0.953.

Take `c1coc(CNc2ncnc3[nH]cnc23)c1`: the relative growth was determined as 1.02.

As to `CCNC(=O)C[C@@H]1CC[C@H](NC(=O)C2CCOCC2)[C@H](CO)O1`, the relative growth amounted to 1.17.

For the molecule `C=CC[C@@H](CC(=O)N(CCO)Cc1ccccc1)C(=O)N[C@H](COC(=O)[C@@H](CC=C)CC(=O)OC(C)(C)C)Cc1c[nH]c2ccccc12`, the relative growth is 1.12.

Molecule `C[C@@H]1CCCCO[C@H](CN(C)Cc2ccc3c(c2)OCO3)[C@H](C)CN([C@@H](C)CO)C(=O)c2cc(NS(=O)(=O)c3ccc(Cl)cc3)ccc2O1` had a relative growth of 1.05.

Molecule `O=C(CN1CCOCC1)NCC[C@H]1CC[C@@H](NS(=O)(=O)c2ccc(Cl)cc2)[C@@H](CO)O1` had a relative growth of 0.942.

For the molecule `CC[C@]1(O)CC2CN(CCc3c([nH]c4ccccc34)[C@@](C(=O)OC)(c3cc4c(cc3OC)N(C=O)[C@H]3[C@@](O)(C(=O)OC)[C@H](OC(C)=O)[C@]5(CC)C=CCN6CC[C@]43[C@@H]65)C2)C1.O=S(=O)(O)O` (stereo not given in full), the relative growth came out at 0.965.

`O=C(O)c1ccccc1O` gave a relative growth of 1.24.

`CC1/C=C/C=C/C=C/C=C/C=C/C=C/C=C/C(OC2O[C@H](C)[C@@H](O)[C@H](N)[C@@H]2O)CC(O)C(C(=O)O)C(O)CC(=O)CC(O)CC(O)CC(O)CC(=O)CCCC(=O)CC(=O)OC1C(C)CC(C)C(O)CC(=O)c1ccc(N)cc1` (stereo not given in full) displayed a relative growth of 1.13.
